From patent US20100069443A1, “COMPOUND WITH BENZAMIDE SKELETON HAVING CYCLOOXYGENASE-1 (COX-1)-SELECTIVE INHIBITORY ACTIVITY” (National University Corporation Okayama University, priority 2006, published 2010) come the findings set out here.

Like-named read-outs stand apart in the source and are kept apart here.

On to `Nc1ccc(C(=O)Nc2ccc(C(F)(F)F)cn2)cc1` [Compound 14], for which, where the note is “300 mg/kg intraperitoneally, 5 mice, observed for 14 days”, the “Rapid decrease of body weight, changes in coats, caudal necrosis” value was “not observed”. For the compound `Nc1ccc(NC(=O)c2ccc(C(F)(F)F)cc2)nc1` [Compound 1], for the setting “1 g/kg intraperitoneally, 3 mice, observed for 10 days”, the “Rapid decrease of body weight, changes in coats, caudal necrosis” value is recorded as “not observed”.
